# T1: human TREM2 (hTREM2), expressed on cells (human, UniProt Q9NZC2 19-230)
# Protein sequences, listed by entry. Tags and fused reporters are not part of them. Chains listed by the source or under a name are the forms on record and can include a tag or linker.
# UniProt Q9NP99, other isoform, or with tags, fused parts or gaps limits assumed: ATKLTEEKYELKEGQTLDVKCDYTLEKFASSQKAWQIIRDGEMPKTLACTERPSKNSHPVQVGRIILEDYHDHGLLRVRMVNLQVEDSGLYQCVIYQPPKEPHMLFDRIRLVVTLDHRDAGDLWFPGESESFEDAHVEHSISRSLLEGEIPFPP
# T1 sequence: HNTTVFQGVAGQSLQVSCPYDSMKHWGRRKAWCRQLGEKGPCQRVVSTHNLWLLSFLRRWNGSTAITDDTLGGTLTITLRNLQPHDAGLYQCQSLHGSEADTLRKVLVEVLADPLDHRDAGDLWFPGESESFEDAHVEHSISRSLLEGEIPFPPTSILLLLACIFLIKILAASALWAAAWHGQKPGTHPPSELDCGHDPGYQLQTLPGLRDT
# B1: MOR042596 (full IgG) (antibody, V domains shown)
# VH: QVQLVQSGAEVKKPGASVKVSCKASGYTFTGYHMSWVRQAPGQGLEWMGVINPVSGNTVYAQKFQGRVTMTRDTSISTAYMELSRLRSEDTAVYYCARIPSYTYAFDYWGQGTLVTVSS
# VL: DIQMTQSPSSLSASVGDRVTITCRASQDISNYLAWYQQKPGKAPKLLIYRASSLQSGVPSRFSGSGSGTDFTLTISSLQPEDFATYYCQQHGHSPTTFGQGTKVEIKR
# notes: Parental antibody of MOR044698; VH1B k1
# Legend:
# [1] = target: T1, human TREM2 (hTREM2), expressed on cells; experiment: cell-based or functional assay
# [2] = target: T1, human TREM2 (hTREM2), expressed on cells; experiment: cell-based or functional assay; remark: listed apart in the source
# [3] = target: T2, hTREM1 IgSF-hTREM2 stalk-hFc (human, UniProt Q9NP99 21-134, limits assumed, biotinylated in the -bio form); experiment: ELISA
# T2 construct: domain: IgSF; also called hTREM1 IgSF-T2 stalk-hFc-bio; hTREM1 IgSF-hTREM2 stalk-hFc-bio
# [4] = target: T1, human TREM2 (hTREM2), expressed on cells; experiment: cell-based or functional assay; remark: listed apart in the source
binder,measurement,setting,value
B1,RGA in THP-B5 cells (fold increase over BG),[1],1.8 fold
same,Internalization (fold over control),[2],76 fold
same,TREM2 activation (fold in RGA),[2],1.6 fold
same,binding result,[3],no binding
same,Activation THP1 B5-NFAT reporter fold activation,[4],1.6 fold

# From patent publication US20250215080A1 (published 2025)
